The test addresses FGFR3 enzyme (Homo sapiens (Human), UniProt P22607). Put plainly: FGFR Enzymatic Assay (peptide phosphorylation, FRET), FGFR3. Type of test: biochemical. To be noted: IC50 ratio showing FGFR3 selectivity; pre-incubated for 4 hours. On the procedure:
The inhibitor potency of the exemplified compounds was measured in an enzyme assay that measures peptide phosphorylation using FRET measurements to detect product formation. Inhibitors were serially diluted in DMSO and a volume of 0.5 μL was transferred to the wells of a 384-well plate.
GraphPad prism3 was used to analyze the data.

Sequences of proteins named here, by UniProt entry; tags and fusion partners are left off. Residues count along the entry.
UniProt P22607, 23-806: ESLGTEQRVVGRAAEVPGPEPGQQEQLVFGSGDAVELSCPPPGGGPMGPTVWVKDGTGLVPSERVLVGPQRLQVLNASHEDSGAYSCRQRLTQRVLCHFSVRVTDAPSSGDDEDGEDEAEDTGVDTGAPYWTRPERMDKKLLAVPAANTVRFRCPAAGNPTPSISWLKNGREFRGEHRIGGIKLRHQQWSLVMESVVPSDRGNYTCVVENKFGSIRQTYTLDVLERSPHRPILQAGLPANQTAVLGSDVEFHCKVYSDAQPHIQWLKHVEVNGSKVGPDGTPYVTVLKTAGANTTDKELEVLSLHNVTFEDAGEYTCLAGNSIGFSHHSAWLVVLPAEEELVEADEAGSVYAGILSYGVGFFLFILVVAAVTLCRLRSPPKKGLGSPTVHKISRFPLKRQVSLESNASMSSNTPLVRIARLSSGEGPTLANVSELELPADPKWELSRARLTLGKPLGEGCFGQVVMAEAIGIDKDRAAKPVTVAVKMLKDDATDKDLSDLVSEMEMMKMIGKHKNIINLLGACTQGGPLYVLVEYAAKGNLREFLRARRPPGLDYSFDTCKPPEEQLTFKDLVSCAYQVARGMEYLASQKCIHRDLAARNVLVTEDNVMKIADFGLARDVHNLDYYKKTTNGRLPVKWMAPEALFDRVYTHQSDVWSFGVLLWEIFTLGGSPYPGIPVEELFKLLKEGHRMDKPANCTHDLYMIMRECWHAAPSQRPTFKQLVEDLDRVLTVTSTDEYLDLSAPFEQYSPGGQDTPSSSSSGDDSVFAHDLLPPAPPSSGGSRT

With `CCN1C(=O)N(c2cc(OC)cc(C(=O)NC)c2F)Cc2cnc(-c3ccc(C4(C#N)CCC4)nc3)cc21` [Example 28, 3-(7-(6-(1-cyanocyclobutyl)pyridin-3-yl)-1-ethyl-2-oxo-1,2-dihydropyrido[4,3-d]pyrimidin-3(4H)-yl)-2-fluoro-5-methoxy-N-methylbenzamide], the FGFR1/FGFR3 is listed as over 10 and the FGFR4/FGFR3 is over 25.
